The text below walks through data of PubChem BioAssay AID720700 (The Scripps Research Institute Molecular Screening Center, 2013).

Chains of the proteins cited; added tags and fusions are not shown.
UniProt P19174, whole entry: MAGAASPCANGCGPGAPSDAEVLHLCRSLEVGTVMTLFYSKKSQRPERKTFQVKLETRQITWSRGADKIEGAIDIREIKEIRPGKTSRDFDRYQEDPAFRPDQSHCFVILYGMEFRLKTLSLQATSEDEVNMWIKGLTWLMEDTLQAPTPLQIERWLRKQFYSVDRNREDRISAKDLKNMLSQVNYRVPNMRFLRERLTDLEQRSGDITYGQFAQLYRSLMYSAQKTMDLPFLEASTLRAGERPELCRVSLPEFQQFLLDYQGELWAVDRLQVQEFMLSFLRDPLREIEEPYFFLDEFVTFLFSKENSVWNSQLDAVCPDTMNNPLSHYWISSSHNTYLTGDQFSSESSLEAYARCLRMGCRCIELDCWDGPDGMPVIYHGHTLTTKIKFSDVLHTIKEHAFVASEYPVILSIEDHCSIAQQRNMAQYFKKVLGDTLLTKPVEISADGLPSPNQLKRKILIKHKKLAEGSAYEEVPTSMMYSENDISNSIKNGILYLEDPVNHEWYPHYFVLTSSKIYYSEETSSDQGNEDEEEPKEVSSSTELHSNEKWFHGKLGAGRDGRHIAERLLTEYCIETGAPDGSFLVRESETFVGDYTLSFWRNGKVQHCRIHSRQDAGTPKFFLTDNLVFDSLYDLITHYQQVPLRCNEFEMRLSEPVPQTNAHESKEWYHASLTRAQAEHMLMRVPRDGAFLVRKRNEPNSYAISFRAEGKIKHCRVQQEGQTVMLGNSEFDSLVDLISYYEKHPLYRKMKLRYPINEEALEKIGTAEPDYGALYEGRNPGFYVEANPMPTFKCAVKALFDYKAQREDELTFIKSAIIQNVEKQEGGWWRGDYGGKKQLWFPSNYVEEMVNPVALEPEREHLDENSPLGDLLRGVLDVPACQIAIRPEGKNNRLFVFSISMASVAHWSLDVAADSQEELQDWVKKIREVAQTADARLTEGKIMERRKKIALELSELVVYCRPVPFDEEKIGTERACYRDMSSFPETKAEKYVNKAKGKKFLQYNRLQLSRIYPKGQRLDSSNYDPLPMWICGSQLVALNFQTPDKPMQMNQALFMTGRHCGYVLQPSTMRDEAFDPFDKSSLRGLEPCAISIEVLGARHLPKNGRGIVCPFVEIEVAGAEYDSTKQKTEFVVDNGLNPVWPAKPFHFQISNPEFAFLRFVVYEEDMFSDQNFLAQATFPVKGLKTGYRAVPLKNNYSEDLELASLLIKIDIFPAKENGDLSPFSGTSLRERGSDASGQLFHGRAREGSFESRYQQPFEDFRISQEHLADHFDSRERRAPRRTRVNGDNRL

The entries are a selection whose mix differs from that of the whole data set. Calls of active or inactive are those of the source. Rule as the data show it: active = inhibition above about 9.5%; inactive = the rest.

The target of this assay is 1-phosphatidylinositol 4,5-bisphosphate phosphodiesterase gamma-1 (Homo sapiens) (UniProt P19174). Description: blockers of human PLCG1 activity – biochemical, fluorescence, purified enzyme, primary screen (AID 720700). Conditions: purified PLC-gamma1, fluorogenic substrate, at 12.2 µM, active compounds read high.
Regarding `CCOc1ccc(C)cc1CN(CCCl)CCCl`, the inhibition was inactive: 3.12%.

For the compound `CC(C)(C)n1nnnc1C(c1ccccc1)N1CCC(n2c(=O)[nH]c3ccccc32)CC1` (stereo not given), the inhibition is inactive: 3.26%.

Take `O=C1CCN(Cc2ccccc2)CC1`: the inhibition is inactive: -2.27%.

`O=c1[nH]c2ccccc2n1C1CCN(C(c2cccc3ccccc23)c2nnnn2C2CCCC2)CC1` (stereo not given): the inhibition was inactive: -1.06%.

Regarding `COc1cc(C(=O)NCC2(N(C)C)CCCCC2)ccc1OC(F)F`, the inhibition was inactive: 0.12%.

Take `CCOC(=O)N1CCC(Nc2cccc(C)c2)CC1`: the inhibition was inactive: 0.86%.

Turning to `O=c1[nH]c2ccccc2n1C1CCN(C(c2ccccc2)c2nnnn2C2CCCCC2)CC1` (stereo not given), the inhibition is inactive: -1.19%.

For the compound `CSc1ccccc1C(=O)NCC1(N2CCCCC2)CCCCC1`, the inhibition was inactive: -2.23%.

On to `Cc1cccc(NC2(C#N)CCN(Cc3ccccc3)CC2)c1`, for which the inhibition is inactive: 7.74%.

For `O=C(NCC1(N2CCCCC2)CCCCC1)c1ccc(=O)[nH]c1`, the inhibition is inactive: -1.12%.

Consider `CCCCn1nnnc1C(c1cccs1)N1CCC(n2c(=O)[nH]c3ccccc32)CC1` (stereo not given), for which the inhibition is inactive: 0.06%.

For the compound `O=C(NCC1(N2CCCCC2)CCCCC1)c1cccs1`, the inhibition is inactive: -4.7%.

Take `CCCCn1nnnc1C(CC)N1CCC(n2c(=O)[nH]c3ccccc32)CC1` (stereo not given): the inhibition was inactive: 1.03%.

With `COc1ccc(C(=O)NCC2(N3CCCCC3)CCCCC2)cc1`, the inhibition is inactive: -1.73%.

Regarding `CCC(c1nnnn1C1CCCC1)N1CCC(n2c(=O)[nH]c3ccccc32)CC1` (stereo not given), the inhibition was inactive: 1.74%.

Regarding `CC(C)(C)OC(=O)N1CCC(N(C(=O)c2ccccc2)c2ccc(F)cc2)CC1`, the inhibition is inactive: 4.91%.

`COc1ccc(C(=O)NCC2(N3CCCCC3)CCCCC2)c(OC)c1OC`: the inhibition was inactive: -3.2%.

Turning to `CCOC(=O)N1CCC(Nc2ccc(OC)cc2)CC1`, the inhibition is inactive: 0.24%.

`CCCCn1nnnc1C(c1ccc(OC)cc1)N1CCC(n2c(=O)[nH]c3ccccc32)CC1` (stereo not given): the inhibition is inactive: -1.4%.

Take `O=c1[nH]c2ccccc2n1C1CCN(C(c2cc3ccccc3o2)c2nnnn2C2CCCCC2)CC1` (stereo not given): the inhibition is inactive: -1.12%.

Regarding `O=C(OC1CN2CCC1CC2)C1c2ccccc2Oc2ccccc21` (stereo not given), the inhibition was inactive: -0.04%.

Turning to `N#CC1(Nc2ccccc2)CCN(Cc2ccccc2)CC1`, the inhibition is inactive: -1.49%.

Turning to `O=C(NCC1(N2CCCCC2)CCCCC1)c1ccc(Cl)s1`, the inhibition is inactive: -1.45%.

Take `COc1ccc(Cl)cc1C(=O)NCC1(N2CCOCC2)CCCCC1`: the inhibition is inactive: 2.75%.

For the compound `O=C(NCC1(N2CCOCC2)CCCCC1)c1cc2ccccc2o1`, the inhibition was inactive: -2.26%.

As to `O=c1[nH]c2ccccc2n1C1CCN(C(c2ccccc2OC(F)(F)F)c2nnnn2C2CCCCC2)CC1` (stereo not given), the inhibition was inactive: 4.05%.

For the compound `O=C(NCC1(N2CCCCC2)CCCCC1)c1ccc(Cl)nc1`, the inhibition is inactive: -11.2%.

Take `Cc1cc(C)cc(N(C(=O)c2ccccc2)C2CCN(C(=O)OC(C)(C)C)CC2)c1`: the inhibition is inactive: 0.8%.

For the compound `CCCCn1nnnc1C(c1ccnc2ccccc12)N1CCC(n2c(=O)[nH]c3ccccc32)CC1` (stereo not given), the inhibition was inactive: -0.07%.

`COc1cc(OC)c(C(=O)NCC2(N(C)C)CCCCC2)cc1OC`: the inhibition is inactive: 2.55%.

As for `CCC(c1nnnn1C(C)(C)C)N1CCC(n2c(=O)[nH]c3ccccc32)CC1` (stereo not given), the inhibition is inactive: 1.7%.

Consider `O=C(NCC1(N2CCOCC2)CCCCC1)c1cc(F)c(F)cc1Cl`, for which the inhibition is inactive: 0.65%.

On to `COC(=O)C1(Nc2ccccc2)CCN(Cc2ccccc2)CC1`, for which the inhibition is inactive: -1.33%.

On to `COc1ccc(CN(CCCl)CCCl)cc1Cl`, for which the inhibition was inactive: 7.38%.

`CN(C)c1cccc(C(=O)NCC2(N3CCCCC3)CCCCC2)c1`: the inhibition is inactive: -53.3%.

As to `CC(C)c1ccc(NC2CCN(C(=O)OC(C)(C)C)CC2)cc1`, the inhibition is inactive: -0.22%.

Regarding `Cc1ccc(C(=O)NCC2(N(C)C)CCCCC2)o1`, the inhibition is inactive: 3.16%.

As to `CCCOc1ccc(C(=O)NCC2(N(C)C)CCCCC2)cc1OC`, the inhibition was inactive: -1%.

Consider `COc1ccc(C(c2nnnn2C2CCCC2)N2CCC(n3c(=O)[nH]c4ccccc43)CC2)cc1` (stereo not given), for which the inhibition is inactive: 5.12%.

With `O=C(NCC1(N2CCCCC2)CCCCC1)c1cncc(Br)c1`, the inhibition was inactive: 2.17%.

For `CN1CCC(Nc2cccc(F)c2)CC1`, the inhibition is inactive: 1.68%.

With `CSc1ccc(C(=O)NCC2(N3CCOCC3)CCCCC2)cc1`, the inhibition was inactive: 2.39%.

As for `O=C(NCC1(N2CCCCC2)CCCCC1)c1cccc([N+](=O)[O-])c1`, the inhibition was inactive: -0.17%.

With `CCN1CCC(Nc2ccc(Cl)cc2)CC1`, the inhibition is inactive: 3.03%.

On to `N#CC1(Nc2ccccc2)CCN(CCc2ccccc2)CC1`, for which the inhibition is inactive: 1.36%.

With `O=c1[nH]c2ccccc2n1C1CCN(C(c2ccccc2OC(F)(F)F)c2nnnn2C2CCCC2)CC1` (stereo not given), the inhibition was inactive: -0.04%.

In the case of `CC(C)(C)n1nnnc1C(c1ccccc1OC(F)(F)F)N1CCC(n2c(=O)[nH]c3ccccc32)CC1` (stereo not given), the inhibition is inactive: -0.84%.

Consider `O=C(NCC1(N2CCCCC2)CCCCC1)c1ccc(OC(F)F)cc1`, for which the inhibition is inactive: 1.16%.

For `CCCCn1nnnc1C(c1cccc2ccccc12)N1CCC(n2c(=O)[nH]c3ccccc32)CC1` (stereo not given), the inhibition is inactive: 3.27%.

`CC(C)c1ccc(C(=O)NCC2(N3CCOCC3)CCCCC2)cc1`: the inhibition is inactive: -2.77%.

As to `COc1ccc(NC2CCN(C(=O)OC(C)(C)C)CC2)cc1`, the inhibition is inactive: 1.13%.

`CN1CCN(CCOC(=O)C(O)(c2ccccc2)c2ccccc2)CC1`: the inhibition is inactive: 2.57%.

On to `O=C(NCC1(N2CCOCC2)CCCCC1)c1cc(=O)[nH]c2ccccc12`, for which the inhibition is inactive: 0.42%.

`COc1cc(C(=O)NCC2(N3CCCCC3)CCCCC2)ccc1OC(F)F`: the inhibition is inactive: -2.36%.

As to `O=C(NCC1(N2CCCCC2)CCCCC1)c1cccc(C(F)(F)F)c1`, the inhibition was inactive: -2.36%.

A word on the inhibition: it is the drop in the measured response relative to a control, in per cent.
